Laboratory results: PMC4594013 (Frontiers in Pharmacology, 2015)

Assays:
[1] = test system: OAT2 (sequence not given); conditions: expressed in S2 cells, ref Takeda et al., 2002; cited from earlier work
OAT2-tv1 = target: T1, OAT2-tv1 (Homo sapiens, UniProt Q9Y694); test: Inhibition of [3H]penciclovir uptake into CHO-OAT2-tv1 cells; format: cell-based; conditions: test compound 1 mM, [3H]penciclovir ∼30 nM, 5 min
T1 sequence (Q9Y694 1-546 isoform Q9Y694-2): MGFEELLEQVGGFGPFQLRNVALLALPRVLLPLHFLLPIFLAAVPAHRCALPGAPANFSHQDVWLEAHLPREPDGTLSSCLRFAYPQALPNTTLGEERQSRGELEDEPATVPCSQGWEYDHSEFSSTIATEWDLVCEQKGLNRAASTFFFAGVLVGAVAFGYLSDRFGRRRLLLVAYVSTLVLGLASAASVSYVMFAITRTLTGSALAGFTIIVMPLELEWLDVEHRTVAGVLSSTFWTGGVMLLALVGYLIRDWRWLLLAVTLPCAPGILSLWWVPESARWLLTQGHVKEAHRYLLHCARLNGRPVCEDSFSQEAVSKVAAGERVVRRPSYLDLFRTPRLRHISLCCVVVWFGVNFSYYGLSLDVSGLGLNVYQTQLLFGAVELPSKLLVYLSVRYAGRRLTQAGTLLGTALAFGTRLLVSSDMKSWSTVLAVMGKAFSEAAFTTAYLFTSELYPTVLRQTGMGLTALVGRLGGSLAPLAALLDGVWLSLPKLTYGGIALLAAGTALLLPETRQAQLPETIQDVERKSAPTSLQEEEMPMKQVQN
Description: All experiments examining cellular radiolabeled compound uptake were conducted using cells grown to confluence in 24-well flat bottom plates. The transport solution consisted of WB (room temperature) containing radiolabeled compound and the uptake period for all experiments was at an initial rate time point of 5 min. [^3H]Penciclovir served as the probe OAT2 substrate. We also examined the uptake of [^3H]para-aminohippurate, [^3H]estrone-3-sulfate, [^14C]glutarate, [^14C]succinate, [^3H]paclitaxel, and [^3H]dehydroepiandrosterone sulfate by OAT2 since published studies indicate that they are substrates of the transport protein ([Sun et al., 2001]; [Kobayashi et al., 2005a]). […] For all cellular uptake experiments, the medium was aspirated and the cells were rinsed once with WB (0.3 ml). Following the uptake period, cells were washed three times with ice-cold WB (0.5 ml each wash). After aspirating the final wash the cells were lysed in 0.5 N NaOH/1% SDS (0.4 ml) for ∼30 min on an orbital shaker. 1 N HCl (0.2 ml) was then added to neutralize the NaOH, and the cell lysates (0.5 ml) were transferred to scintillation vials containing liquid scintillation cocktail (CytoScint ES, MP Biomedicals). Cellular radioactivity content was determined with a Beckman LS6500 liquid scintillation counter. Protein content was determined using the bicinchoninic acid method. […]

Row | Compound | transport by OAT2 [1] | cis-inhibition of penciclovir uptake (OAT2-tv1)
1 | Nc1nc(O)c2ncn(COC(CO)CO)c2n1 [ganciclovir] | failed to transport | 
2 | α-ketoglutarate |  | none of the Kreb’s cycle intermediates tested, including succinate and fumarate, cis-inhibited penciclovir uptake
